PubChem AID 2061109: pyroptosis screen in mouse bone marrow macrophages, one dose (5 µM).
Target pathway: NLRP3 inflammasome, triggered by LPS and nigericin. Dead cells counted by propidium iodide.
Higher is more protection: 100% equals untreated cells, 0% the stimulated control, negative values set to 0. Active call (*): above 70%. Part of the library is listed.

SMILES | inhibition (%)
Cc1cnn(C2CCN(c3nc4ccccc4n3Cc3ccc(F)cc3)CC2)c1 | 48.8
Cc1cc(C)c2c(c1)[C@@H](N(Cc1cc(C(F)(F)F)cc(C(F)(F)F)c1)c1nnn(C)n1)CCCN2CC1CCC(C(=O)O)CC1 | 34.6
Fc1ccc(Nc2nc3ccccc3nc2Nc2ccc(F)cc2)cc1 | 64.8
CC[C@@H]1[C@H](F)C(=O)N[C@@H]1COc1nccc2cc(C(N)=O)c(OC)cc12 | 60.8
CCCCCC(O)/C=C/C=O | 44.3
Cc1c(COc2ccc(CN3CCCCC3C(=O)O)cc2Br)cccc1-c1ccccc1 | 0.0
CCOC(=O)[C@H](CCc1ccccc1)N[C@@H](C)C(=O)N1CCC[C@H]1C(=O)O.O=C(O)/C=C\C(=O)O | 8.5
Cc1sc(C(=O)c2cncnc2N[C@@H]2C[C@H](COS(N)(=O)=O)[C@@H](O)C2)cc1[C@@H]1NCCc2ccc(Cl)cc21 | 0.0
C[C@@H](NC(=O)c1ccc(F)cc1)c1ccc2c(c1)CCN2C(=O)C1CCOCC1 | 0.0
COc1cc(Oc2ccnc3cc(OC)c(OC)cc23)ccc1NC(=O)NC(C)c1nccs1 | 41.4
COC(=O)N[C@H](C(=O)N1CCC[C@H]1c1nc2ccc(-c3csc4c(-c5ccc(-c6cnc([C@@H]7CCCN7C(=O)[C@H](NC(=O)OC)c7ccccc7)[nH]6)cc5)csc34)cc2[nH]1)C(C)C | 0.0
Cc1[nH]n(-c2nc3c(Cl)c(Cl)ccc3[nH]2)c(=O)c1C1OC(=O)c2ccccc21 | 0.0
COc1cc2c(cc1OC)C(=O)C(CC1CCN(Cc3ccccc3)CC1)C2 | 46.2
O=[N+]([O-])c1cccc2cn[nH]c12 | 0.0
COc1ccc(CNC(=O)c2cc(-c3cncc(Cl)c3)cnc2-c2ccccn2)nc1OC | 24.2
O=C1CN(c2cn[nH]c(=O)c2Cl)CCN1Cc1ccccc1C(F)(F)F | 63.6
c1cn2cc(-c3ccc4cn[nH]c4c3)nc(Nc3ccc(N4CCOCC4)cc3)c2n1 | 71.3*
Cc1c(C(=O)Nc2ccc(Oc3ccnc4[nH]cc(-c5ccccc5)c34)c(F)c2)c(=O)n(-c2ccc(F)cc2)n1C | 0.0
CS(=O)(=O)N1CCc2c(-c3cnc(N)nc3)nc(N3CCOCC3)nc21 | 0.0
O=C(O)c1cnc(SCCCc2ccccc2)[nH]c1=O | 38.9
O=C(NCc1ccc(Cl)cc1)C1CCN(S(=O)(=O)c2cc(Cl)cc(Cl)c2)CC1 | 0.0
CCOc1ccccc1C(=O)NCc1coc(-c2ccc(OC(F)F)c(OC(C)C)c2)n1 | 0.0
COc1cc2nccc(Oc3ccc(NC(=O)Nc4cc(C)on4)c(Cl)c3)c2cc1OC | 0.0
CC1(C)N=C(C2CCCCC2)c2ccc(C#N)cc2N(c2ccc(NCCNC3CCOCC3)cc2)C1=O | 0.0
O=C(N[C@H](Cc1ccccc1)C(=O)O)c1sc2cc(F)ccc2c1Cl | 18.4
Cc1cc2nc3c4ccccc4n(CCN(C)C)c3nc2cc1C | 27.8
c1cc2c(cc1O[C@H]1OC[C@H]3[C@@H]1CO[C@@H]3c1ccc3c(c1)OCO3)OCO2 | 69.9
COc1ccccc1-c1nc(=Nc2ccccc2)sn1-c1ccccc1OC | 0.0
COc1c2c(cc3c1OCO3)CCN(C)C2 | 44.1
CC#CC(=O)N[C@H]1CCCN(c2c(F)cc(C(N)=O)c3[nH]c(C)c(C)c23)C1 | 77.5*
CC1(C)CC[C@]2(C(=O)O)CC[C@]3(C)C(=CC[C@@H]4[C@@]5(C)CC[C@H](O[C@@H]6O[C@H](C(=O)O)[C@@H](O)[C@H](O)[C@H]6O[C@@H]6O[C@H](CO)[C@@H](O)[C@H](O)[C@H]6O)C(C)(C)[C@@H]5CC[C@]43C)[C@@H]2C1 | 78.9*
Cc1ccc(-c2c(C#N)c(N)n3c(nc4ccccc43)c2C#N)cc1 | 59.3
COc1cc([C@H]2OC[C@H]3[C@@H]2CO[C@@H]3c2cc(OC)c(O[C@@H]3O[C@H](CO)[C@@H](O)[C@H](O)[C@H]3O)c(OC)c2)ccc1O[C@@H]1O[C@H](CO)[C@@H](O)[C@H](O)[C@H]1O | 79.9*
CC(C)(C)NCC(O)c1ccccc1Cl.Cl | 0.0
CS(=O)(=O)Nc1ccc2oc3c(OC(F)F)ccc(C(=O)Nc4c(Cl)cncc4Cl)c3c2c1 | 0.5
CCCC(=O)O[C@H]1CN2CC[C@H](O)[C@@H]2[C@@H](O)[C@@H]1O | 0.0
CNC(=O)O[C@H]1COc2ccc(N3CCN(C4COC4)CC3)cc2[C@@H]1NC(=O)c1ccc(F)cc1 | 0.0
CC(=O)OC(C)(C)CCC(=O)[C@](C)(O)[C@H]1[C@H](O)C[C@@]2(C)[C@@H]3CC=C4[C@@H](C[C@H](O)[C@@H](O)C4(C)C)[C@]3(C)C(=O)C[C@]12C | 62.8
COc1ccccc1NC(=O)NCc1ccc(C(=O)NO)cc1 | 41.7
Cl.Cl.c1ccc(C(CC2=NCCN2)c2ccccn2)cc1 | 0.0
C=C1CC[C@@H](O)CC1=C/C=C1\CCC[C@]2(C)[C@@H]([C@H](C)CCCC(C)(C)O)CC[C@@H]12.O | 36.6
COc1ccc2c(c1O)-c1c(OC)c(OC)cc3c1[C@H](C2)N(C)CC3.Cl | 11.6
Cl.Cl.NC1CCC(N[C@@H]2C[C@H]2c2ccccc2)CC1 | 0.9
CCOC(=O)CN1C(=O)c2ccc3c4c(ccc(c24)C1=O)C(=O)N(CC(=O)OCC)C3=O | 33.9
CCNC(=O)N1CCN(CCCC(c2ccc(F)cc2)c2ccc(F)cc2)CC1 | 0.0
N#Cc1cc(-c2ccnc(Nc3ccc(N4CCOCC4)cc3)n2)ccc1OC1CCOCC1 | 69.9
Cc1nn(C)c2nc(NNC(=O)Nc3cc(Cl)nc(Cl)c3)cc(C(C)C)c12 | 0.0
Cc1ccc(-n2nc(C(C)(C)C)cc2NC(=O)Nc2ccc(OCCN3CCOCC3)cc2)cc1 | 73.8*
Cc1cccc(CNc2ncnc3nc[nH]c23)c1O | 0.0
NS(=O)(=O)c1cc(-c2nn[nH]n2)c(NCc2cccs2)cc1Cl | 45.1
Cc1ccc(C(=O)Nc2ccc(CN3CCN(C)CC3)c(C(F)(F)F)c2)cc1C#Cc1cnc2cccnn12.Cl | 8.9
CC1(C)N([O-])c2cc([N+](=O)[O-])ccc2[N+]1=O | 0.0
O=C(O)/C=C/c1cc(Br)c(Br)c(Br)c1Br | 0.0
CC(=O)Nc1ccc(C)c(C(=O)N[C@H](C)c2cccc3ccccc23)c1 | 66.1
CC1(C)[C@@H]2CC[C@@]1(C)[C@H](O)C2 | 0.0
O.O=C1NC(=O)C(=O)C(=O)N1 | 0.0
CC(C)c1cc(C(=O)N2Cc3ccc(CN4CCN(C)CC4)cc3C2)c(O)cc1O | 69.8
N#CC[C@@H](C1CCCC1)n1cc(-c2ncnc3[nH]ccc23)cn1 | 69.2
COC1CCC(C(=O)c2ccc3nc4c(cc3c2)CCCO4)CC1 | 17.0
CC(C)Cc1ccc([C@@H](C)C(=O)NS(C)(=O)=O)cc1 | 68.5
O=C(Nc1ccc(-c2ccccc2)cc1)c1no[nH]c1=O | 39.0
CO[C@H]1C[C@@H]2CC[C@@H](C)[C@@](O)(O2)C(=O)C(=O)N2CCCC[C@H]2C(=O)O[C@H]([C@H](C)C[C@@H]2CC[C@@H](OP(C)(C)=O)[C@H](OC)C2)CC(=O)[C@H](C)/C=C(\C)[C@@H](O)[C@@H](OC)C(=O)[C@H](C)C[C@H](C)/C=C/C=C/C=C/1C | 72.1*
C[C@](O)(Cn1ccc2cc(F)ccc21)C(=O)Nc1ccc(C#N)c(C(F)(F)F)c1 | 0.0

Repeating the final 5 entries:

| SMILES | inhibition (%) |
|---|---|
| COC1CCC(C(=O)c2ccc3nc4c(cc3c2)CCCO4)CC1 | 17.0 |
| CC(C)Cc1ccc([C@@H](C)C(=O)NS(C)(=O)=O)cc1 | 68.5 |
| O=C(Nc1ccc(-c2ccccc2)cc1)c1no[nH]c1=O | 39.0 |
| CO[C@H]1C[C@@H]2CC[C@@H](C)[C@@](O)(O2)C(=O)C(=O)N2CCCC[C@H]2C(=O)O[C@H]([C@H](C)C[C@@H]2CC[C@@H](OP(C)(C)=O)[C@H](OC)C2)CC(=O)[C@H](C)/C=C(\C)[C@@H](O)[C@@H](OC)C(=O)[C@H](C)C[C@H](C)/C=C/C=C/C=C/1C | 72.1* |
| C[C@](O)(Cn1ccc2cc(F)ccc21)C(=O)Nc1ccc(C#N)c(C(F)(F)F)c1 | 0.0 |